Consider one substance from patent US20140288000A1 (University of California, published 2014).

This assay concerns the target human plasmin (human) (UniProt P00747). In words: cell-based or functional assay.

“And” between values parts separate entries of the source, which are not always exact repeats. Identical values can stand only once.

aprotinin (from UniProt P00974 36-93): the IC50 (nM), inhibition of plasmin activity on chromogenic substrate S2251 is 0.48 nM and 0.57 nM.
